Data taken from patent US20250099431A1, “GLP-1R MODULATING COMPOUNDS” (priority 2020, published 2025).
Read-outs that look alike come from different tables or passages of the source.

By UniProt entry, the sequences of proteins in these tests, tags left out. Residues count along the entry.
UniProt P43220, 24-463: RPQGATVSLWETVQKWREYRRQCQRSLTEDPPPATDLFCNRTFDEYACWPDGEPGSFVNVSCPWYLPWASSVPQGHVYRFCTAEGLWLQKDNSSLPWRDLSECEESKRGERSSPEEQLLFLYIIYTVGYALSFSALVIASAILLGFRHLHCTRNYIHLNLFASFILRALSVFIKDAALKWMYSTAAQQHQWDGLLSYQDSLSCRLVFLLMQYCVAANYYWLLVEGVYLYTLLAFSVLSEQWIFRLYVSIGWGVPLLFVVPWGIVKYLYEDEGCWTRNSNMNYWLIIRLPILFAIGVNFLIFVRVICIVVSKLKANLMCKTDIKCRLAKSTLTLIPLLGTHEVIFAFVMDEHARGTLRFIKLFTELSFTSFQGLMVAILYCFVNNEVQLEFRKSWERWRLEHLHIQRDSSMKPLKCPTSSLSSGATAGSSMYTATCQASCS

Biological target: GLP-1R (Homo sapiens (Human), UniProt P43220)
Assay: GLP-1R activation: cAMP increase in CHO cells stably expressing GLP-1R
Type: cell-based
Conditions: 10 point dose response, 30 minutes incubation at 37° C.
Method: GLP-1R activation by a compound of the present disclosure was quantified by measuring cAMP increase in CHO cells stably expressing GLP-1R (MultiSpan product #C1267-1a). […] The cells were then incubated overnight at 37° C., 5% CO2. […] 1% BSA (Rockland Immunochemicals product #BSA-1000)). Following the medium change, the cells were incubated for 1 hour at 37° C., 5% CO2. The tested GLP-1 compound was added to the cells in a 10 point dose response followed by a 30 minutes incubation at 37° C., 5% CO2. cAMP concentration increase was then detected using Cisbio's cAMP Gs Dynamic Kit (product #62AM4PEC) according to the manufacturer's protocol. The response was plotted against the log of the agonist concentration and fitted to a sigmoidal equation to determine the EC50.

Molecule COCCn1c(Cc2cc(F)c(-c3cccc4c3OC(C)(c3ccc(Cl)cc3F)O4)cc2F)nc2ccc(C(=O)O)cc21 (centres unmarked) [Example 113, 2-[[4-[2-(4-chloro-2-fluoro-phenyl)-2-methyl-1,3-benzodioxol-4-yl]-2,5-difluoro-phenyl]methyl]-3-(2-methoxyethyl) benzimidazole-5-carboxylic acid] has an EC50 (cAMP increase, read-out: EC50) of 2.8 nM.
COCCn1c(Cc2cc(F)c(-c3cccc4c3OC(C)(c3ccc(Cl)cn3)O4)cc2F)nc2ccc(C(=O)O)cc21 (centres unmarked) [Example 114, 2-[[4-[2-(5-chloro-2-pyridyl)-2-methyl-1,3-benzodioxol-4-yl]-2,5-difluoro-phenyl]methyl]-3-(2-methoxyethyl) benzimidazole-5-carboxylic acid] gave an EC50 (EC50, cAMP increase) of 11 nM.
